pIC50: −log10 of the molar value.
Biological target: recombinant human PTP1B (Homo sapiens, UniProt P18031)
Assay: Inhibiting phosphotyrosine phosphatase 1B (PTP1B), in-vitro phosphatase assay
Format: biochemical
Settings: Table 2 Biological activity; substrate variant (phosphopeptide, p-nitrophenyl phosphate or DIFMUP) not stated
Source text: Inhibiting Phosphotyrosine Phosphatase 1B (PTP1B)
The setting up and implementation of an in-vitro assay for detecting a phosphatase-inhibiting effect of the compounds according to the invention are described below. The isolation of the enzyme preparation and the implementation of the assay are described. […]
This assay is based on releasing phosphate from a consensus substrate peptide which is detected in the nanomolar concentration range using the malachite green/ammonium molybdate method (Lanzetta, P. A., Alvarez, L. J., Reinach, P. S., Candia, O. A. Anal Biochem. 100: 95-97, 1979) as adapted for the microtiter plate format. […] After incubating at 22° C. for 30 min, in order to develop the color, the absorption at 650 nm was determined using a microtiter plate reader (Molecular Devices). Samples and blanks were measured in triplicate. The PTP1B activity was calculated as nanomoles of phosphate released per min and mg of protein using potassium phosphate as the standard. The inhibition of the recombinant hPTP1B by test substances was calculated as percentages of the phosphatase control. […]

Protein sequences, listed by entry. Tags and fused reporters are not part of them. Residues count along the entry.
UniProt P18031, 1-299 limits assumed: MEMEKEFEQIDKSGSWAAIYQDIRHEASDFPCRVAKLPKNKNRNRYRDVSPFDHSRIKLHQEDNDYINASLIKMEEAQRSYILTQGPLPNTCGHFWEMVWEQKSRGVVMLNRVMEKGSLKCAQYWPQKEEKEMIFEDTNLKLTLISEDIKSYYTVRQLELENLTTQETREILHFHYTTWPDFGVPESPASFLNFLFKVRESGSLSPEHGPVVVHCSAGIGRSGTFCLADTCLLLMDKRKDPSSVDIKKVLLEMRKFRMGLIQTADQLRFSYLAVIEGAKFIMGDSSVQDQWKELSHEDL

SMILES | pIC50
CCn1nc(-c2ccccc2)nc2c(=O)n(C)c(=O)nc1-2 [2] | 6.42
CCCc1ccc(-c2nc3c(=O)n(C)c(=O)nc-3n(CC)n2)cc1 | 6.12
